Settings: with the sample; goat intestine; within 2 hours, keeps increasing upto 4 hours

Substance: Vitamin B-12
- enhancement of bioavailability across the mammalian gut membrane: enhancement of bioavailability

From patent publication EP1330253B1, “USE OF BIOACTIVE FRACTION FROM COW URINE DISTILLATE ('GO MUTRA') AS A BIO-ENHANCER OF ANTI-INFECTIVE, ANTI-CANCER AGENTS AND NUTRIENTS” (Council of Scientific and Industrial Research, priority 2000, dated 2002)
